What follows are compounds tested against human Nav1.7 (hNav1.7) (Homo sapiens, UniProt Q15858) (assay: hNav1.7 whole-cell patch-clamp electrophysiology (automated PatchXpress 7000A or manual) in stably expressing 293 cells). Settings: read-out: hNav1.7 IC50 (μM) (AVG); average IC50, human Nav1.7.

Amino acid sequences for entries named in this document (tags omitted).
UniProt Q15858, whole entry: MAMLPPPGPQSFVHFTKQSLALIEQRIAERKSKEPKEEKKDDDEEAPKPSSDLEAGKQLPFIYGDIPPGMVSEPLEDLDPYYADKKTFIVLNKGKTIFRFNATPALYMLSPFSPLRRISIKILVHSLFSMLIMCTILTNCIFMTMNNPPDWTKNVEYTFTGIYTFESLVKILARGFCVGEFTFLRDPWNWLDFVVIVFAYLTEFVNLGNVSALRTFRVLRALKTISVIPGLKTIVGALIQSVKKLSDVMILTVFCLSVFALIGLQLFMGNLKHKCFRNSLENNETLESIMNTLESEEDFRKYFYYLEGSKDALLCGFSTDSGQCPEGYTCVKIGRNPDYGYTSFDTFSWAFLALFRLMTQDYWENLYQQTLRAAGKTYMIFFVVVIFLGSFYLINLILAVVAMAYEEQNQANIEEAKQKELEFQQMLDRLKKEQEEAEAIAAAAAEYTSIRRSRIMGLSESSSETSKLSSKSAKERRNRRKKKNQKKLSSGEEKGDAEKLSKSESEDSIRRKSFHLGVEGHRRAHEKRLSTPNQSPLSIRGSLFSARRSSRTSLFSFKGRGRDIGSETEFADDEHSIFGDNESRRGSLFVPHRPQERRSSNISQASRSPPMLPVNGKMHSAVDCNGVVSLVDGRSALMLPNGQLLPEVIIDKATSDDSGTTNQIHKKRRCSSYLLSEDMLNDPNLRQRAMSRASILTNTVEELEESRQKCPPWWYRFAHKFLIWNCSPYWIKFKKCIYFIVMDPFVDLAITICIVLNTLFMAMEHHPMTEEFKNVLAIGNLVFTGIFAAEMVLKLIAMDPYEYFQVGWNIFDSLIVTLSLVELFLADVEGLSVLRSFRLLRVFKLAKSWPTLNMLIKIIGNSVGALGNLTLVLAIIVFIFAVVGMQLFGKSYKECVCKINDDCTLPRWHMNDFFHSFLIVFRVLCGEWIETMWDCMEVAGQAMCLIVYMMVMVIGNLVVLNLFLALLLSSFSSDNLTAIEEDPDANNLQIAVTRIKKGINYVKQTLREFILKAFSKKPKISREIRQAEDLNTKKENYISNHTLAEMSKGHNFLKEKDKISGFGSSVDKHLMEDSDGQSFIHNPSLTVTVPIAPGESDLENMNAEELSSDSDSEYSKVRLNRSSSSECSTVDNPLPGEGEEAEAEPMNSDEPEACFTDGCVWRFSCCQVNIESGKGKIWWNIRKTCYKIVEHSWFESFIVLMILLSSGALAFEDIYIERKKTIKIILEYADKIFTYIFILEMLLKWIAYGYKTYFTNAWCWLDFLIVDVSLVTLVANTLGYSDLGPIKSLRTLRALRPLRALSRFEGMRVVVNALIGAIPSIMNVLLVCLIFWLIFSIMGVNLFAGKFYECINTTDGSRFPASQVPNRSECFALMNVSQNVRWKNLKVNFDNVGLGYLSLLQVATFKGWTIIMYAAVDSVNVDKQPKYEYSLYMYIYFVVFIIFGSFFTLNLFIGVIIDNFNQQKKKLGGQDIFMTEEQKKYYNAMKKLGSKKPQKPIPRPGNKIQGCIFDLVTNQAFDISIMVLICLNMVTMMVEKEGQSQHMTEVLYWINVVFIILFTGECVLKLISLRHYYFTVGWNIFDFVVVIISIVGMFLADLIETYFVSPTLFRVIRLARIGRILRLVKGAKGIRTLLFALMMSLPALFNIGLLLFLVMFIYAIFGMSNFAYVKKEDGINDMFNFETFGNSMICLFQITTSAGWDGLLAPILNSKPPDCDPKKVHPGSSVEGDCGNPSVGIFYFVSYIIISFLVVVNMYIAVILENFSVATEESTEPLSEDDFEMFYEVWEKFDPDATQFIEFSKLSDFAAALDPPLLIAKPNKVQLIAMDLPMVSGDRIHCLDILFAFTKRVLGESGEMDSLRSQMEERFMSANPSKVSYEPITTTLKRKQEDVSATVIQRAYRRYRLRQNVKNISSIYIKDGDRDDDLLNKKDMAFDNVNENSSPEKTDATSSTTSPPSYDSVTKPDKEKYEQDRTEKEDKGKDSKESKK

Q: Which IC50 does the source give for CNC(=O)c1cccc(Nc2ncnc(NC(C)CCc3ccccc3)n2)c1 (stereo not drawn) here?
A: Its IC50 is 1.44 µM.

Q: For CNC(=O)c1cccc(Nc2ncnc(N3CC(C(C)Oc4ccc(Cl)cc4)C3)n2)c1 (stereo not drawn), which IC50 is on record?
A: Its IC50 is 5.34 µM.

Q: With CNC(=O)c1cccc(Nc2ncnc(N3CCC(Oc4ccc(OC(F)(F)F)cc4)C3)n2)c1 (stereo not drawn) as the compound, how does the IC50 read?
A: The IC50 was 3.17 µM.

Reference: patent US9334269B2, “Carboxamides as inhibitors of voltage-gated sodium channels” (AMGEN INC., priority 2010, dated 2016)
